Measured values reported in paper PMC5145767 (Neuron, 2016).

Amino acid sequences for entries named in this document (tags omitted). A change or cut given only in a name is not applied to a line headed by its entry. Residues count along the entry.
UniProt Q03445, 28-991: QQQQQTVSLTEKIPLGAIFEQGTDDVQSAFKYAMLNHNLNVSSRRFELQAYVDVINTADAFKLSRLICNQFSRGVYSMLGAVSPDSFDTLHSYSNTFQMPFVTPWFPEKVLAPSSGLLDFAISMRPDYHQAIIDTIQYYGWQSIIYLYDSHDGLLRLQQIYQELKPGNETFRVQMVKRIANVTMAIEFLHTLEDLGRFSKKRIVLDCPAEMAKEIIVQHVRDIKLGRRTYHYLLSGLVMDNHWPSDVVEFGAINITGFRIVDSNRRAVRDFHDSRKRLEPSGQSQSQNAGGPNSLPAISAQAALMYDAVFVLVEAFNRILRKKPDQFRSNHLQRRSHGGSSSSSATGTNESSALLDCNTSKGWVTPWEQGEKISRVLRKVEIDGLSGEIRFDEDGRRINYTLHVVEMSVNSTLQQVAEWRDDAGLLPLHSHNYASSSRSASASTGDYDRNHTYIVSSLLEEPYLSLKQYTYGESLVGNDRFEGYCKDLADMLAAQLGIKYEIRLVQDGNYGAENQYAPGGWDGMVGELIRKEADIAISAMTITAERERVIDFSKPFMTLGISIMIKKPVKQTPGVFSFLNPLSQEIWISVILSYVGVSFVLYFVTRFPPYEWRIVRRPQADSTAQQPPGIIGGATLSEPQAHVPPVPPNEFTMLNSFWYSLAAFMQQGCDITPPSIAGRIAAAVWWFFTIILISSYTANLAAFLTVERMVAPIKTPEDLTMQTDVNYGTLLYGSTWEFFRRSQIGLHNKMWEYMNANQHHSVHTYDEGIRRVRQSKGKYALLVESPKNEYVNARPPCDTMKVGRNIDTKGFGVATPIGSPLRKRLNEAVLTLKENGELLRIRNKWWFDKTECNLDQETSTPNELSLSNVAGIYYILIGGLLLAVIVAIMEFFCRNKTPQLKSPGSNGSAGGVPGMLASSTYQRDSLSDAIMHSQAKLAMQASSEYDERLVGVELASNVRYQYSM
UniProt Q9VDH5: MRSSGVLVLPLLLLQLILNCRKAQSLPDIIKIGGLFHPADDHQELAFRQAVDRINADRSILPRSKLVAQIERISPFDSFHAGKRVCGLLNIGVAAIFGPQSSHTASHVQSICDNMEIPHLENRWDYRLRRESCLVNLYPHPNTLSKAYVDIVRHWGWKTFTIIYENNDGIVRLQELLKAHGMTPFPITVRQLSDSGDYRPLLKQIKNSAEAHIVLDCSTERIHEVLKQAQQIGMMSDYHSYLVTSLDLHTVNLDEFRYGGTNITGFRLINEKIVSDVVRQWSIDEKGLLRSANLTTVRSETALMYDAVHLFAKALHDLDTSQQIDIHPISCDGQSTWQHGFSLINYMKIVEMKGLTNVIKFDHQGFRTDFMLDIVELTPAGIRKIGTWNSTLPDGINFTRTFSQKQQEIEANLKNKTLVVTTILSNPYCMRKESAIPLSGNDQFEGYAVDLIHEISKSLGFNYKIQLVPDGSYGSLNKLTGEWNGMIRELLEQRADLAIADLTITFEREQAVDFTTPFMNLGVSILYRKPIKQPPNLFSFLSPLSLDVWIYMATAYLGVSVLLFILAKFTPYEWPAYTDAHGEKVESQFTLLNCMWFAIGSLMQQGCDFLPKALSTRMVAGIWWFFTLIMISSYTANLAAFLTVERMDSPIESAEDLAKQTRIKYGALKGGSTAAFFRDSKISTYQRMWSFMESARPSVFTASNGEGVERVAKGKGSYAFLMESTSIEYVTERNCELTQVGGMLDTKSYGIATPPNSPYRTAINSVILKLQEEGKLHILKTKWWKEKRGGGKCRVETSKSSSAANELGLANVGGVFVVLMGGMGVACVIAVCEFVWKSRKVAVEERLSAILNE

Experiments:
DGluR1A = DGluR1A (Drosophila melanogaster, UniProt Q03445); experiment: DGluR1A coexpressed with Apis Stg1 in Xenopus oocytes; format: cell-based; details: agonists 3 mM, -60 mV
DKaiR1D = DKaiR1D (Drosophila melanogaster, UniProt Q9VDH5); format: cell-based

SMILES: C=C(C)[C@H]1CN[C@H](C(=O)O)[C@H]1CC(=O)O [kainate]
- response relative to glutamate response (DGluR1A): 4.1 ± 0.3 times
- EC50 (DKaiR1D): 39 ± 1 µM
- amplitude of responses relative to those to glutamate (DKaiR1D; all ligands 10 mM, fraction of glutamate response, -60 mV): 0.37 ± 0.03
- response relative to glutamate at saturating concentrations (DKaiR1D; saturating concentrations): 16%
